Bioassay records: PubChem, Broad Institute
RAD52 anneal inh = RAD52 DNA annealing inhibitors, primary screen, biochemical, FRET, single point, set 2 | DNA repair protein RAD52 homolog (Homo sapiens), P43351 | recombinant RAD52 DNA annealing, FRET fluorescence | inhibition, % at 18.7 µM | hit rate 0.46% among 360,000 | AID 651710, 2012;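 active = every replicate showing at least 50% inhibition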
E-selectin induc = E-selectin induction in HUVECs, primary screen, imaging, HUVEC, immunofluorescence imaging, single point; P16581; activation, % at 7.58 µM; AID 686992, 2013; normalized: neutral wells 0, TNF-alpha wells 100; hit rate 0.37% among 260,000;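 active = mean E-selectin-positive cell signal at least 10% of the positive control, reached in at least 60% of replicates, without over 20% cell loss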
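System: HUVEC, human umbilical vein endothelial cells; quantity: 3,000 cells/well; buffer or medium: EGM-2 medium, gelatin-coated wells; dosing: single-point compound dose; detection: immunofluorescence imaging; evaluation: % PE-positive cells; benchmarks: TNF-alpha, DMSO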
UUG fidelity = modulators of yeast start codon fidelity, primary screen, whole organism, S. cerevisiae, single point, plate reader | AID 602363, 2012 | S. cerevisiae UUG-firefly luciferase reporter, luminescence/redox ratio | activity score, % at 18.7 µM | hit rate 0.13% among 350,000;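 active = replicate mean at a twofold rise or more, about +100% in these data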;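 also: firefly luciferase made from a UUG start codon reports start codon fidelity; reporter light over untreated wells divided by growth signal over untreated wells; some hits fall short of that in this replicate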
RAD54 branch = inhibitors of human RAD54 branch migration, primary screen, biochemical, fluorescence, single point; inhibition, % at 10.4 µM; RAD54 Holliday junction branch migration, FAM/BHQ fluorescence; AID 602329, 2012; hit rate 0.14% among 360,000; DNA repair and recombination protein RAD54-like (Homo sapiens), Q92698;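 active = mean normalized replicate activity at least 40 and at least half of replicates scoring 40 or more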;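 also: 0% = median of neutral control wells and 100% = median of positive control wells; inhibitors cause a drop in the FAM fluorescence signal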
XiGFP reactiv = activators of inactive X chromosome reactivation, primary screen, imaging, XiGFP fibroblasts, GFP high-content imaging, set 2; hit rate 0.055% among 360,000; XiGFP mouse fibroblasts, % GFP-positive cells imaging, 3 d; cells co-treated with 5-aza-dC sensitizer; scaled so ellipticine positive control = 100%; activation, % at 7.58 µM; AID 743238, 2013;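 active = mean normalized replicate activation at least 10% and every replicate at or above 10%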;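 also: 0% = median of on-plate neutral control wells and 100% = ellipticine 6 µM median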
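Material: SV40-immortalized XiGFP fibroblast cells, line 68-5-11 | Buffer or medium: DMEM containing 5-aza-dC | Dosing: One concentration, pinned | Times: 3 d treatment, 15 min room-temperature fixation | Controls: Ellipticine 6 µM positive control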
DNA binder FP = DNA-binding compounds via dye displacement, dose response, artefact control for RAD52 inhibitor project, biochemical, fluorescence polarization, cherry-pick; shares compounds with RAD52 anneal inh; Salmon sperm DNA/acridine orange FP displacement; AC50, µM; hit rate 8% among 1,000;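 active = fitted half-maximal concentration for signal loss at or below twice the highest dose tested, in every separate run, actives reach about 64 µM in these data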
The depositor's hits bear a star; i = inactive; nt = not tested or not shown; ! = a repeat was not active. Shown are actives, neighbours in structure and some others; about 0.73% of the full set was active somewhere.

The chains behind the UniProt entries cited, without tags or fusion partners.
DNA repair protein RAD52 homolog (Homo sapiens), P43351, UniProt P43351, whole entry, looked up: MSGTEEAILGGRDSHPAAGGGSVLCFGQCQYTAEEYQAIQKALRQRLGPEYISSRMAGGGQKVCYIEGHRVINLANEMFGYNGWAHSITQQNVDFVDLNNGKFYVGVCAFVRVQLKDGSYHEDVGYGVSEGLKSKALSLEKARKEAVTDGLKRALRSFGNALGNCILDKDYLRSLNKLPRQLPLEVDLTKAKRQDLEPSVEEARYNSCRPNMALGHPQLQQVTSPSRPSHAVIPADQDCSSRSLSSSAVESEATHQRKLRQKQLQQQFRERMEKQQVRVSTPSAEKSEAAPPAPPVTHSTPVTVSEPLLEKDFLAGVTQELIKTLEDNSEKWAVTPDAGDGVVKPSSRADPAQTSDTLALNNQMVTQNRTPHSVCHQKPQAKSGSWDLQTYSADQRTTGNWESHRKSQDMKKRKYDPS
DNA repair and recombination protein RAD54-like (Homo sapiens), Q92698, UniProt Q92698, whole entry, looked up: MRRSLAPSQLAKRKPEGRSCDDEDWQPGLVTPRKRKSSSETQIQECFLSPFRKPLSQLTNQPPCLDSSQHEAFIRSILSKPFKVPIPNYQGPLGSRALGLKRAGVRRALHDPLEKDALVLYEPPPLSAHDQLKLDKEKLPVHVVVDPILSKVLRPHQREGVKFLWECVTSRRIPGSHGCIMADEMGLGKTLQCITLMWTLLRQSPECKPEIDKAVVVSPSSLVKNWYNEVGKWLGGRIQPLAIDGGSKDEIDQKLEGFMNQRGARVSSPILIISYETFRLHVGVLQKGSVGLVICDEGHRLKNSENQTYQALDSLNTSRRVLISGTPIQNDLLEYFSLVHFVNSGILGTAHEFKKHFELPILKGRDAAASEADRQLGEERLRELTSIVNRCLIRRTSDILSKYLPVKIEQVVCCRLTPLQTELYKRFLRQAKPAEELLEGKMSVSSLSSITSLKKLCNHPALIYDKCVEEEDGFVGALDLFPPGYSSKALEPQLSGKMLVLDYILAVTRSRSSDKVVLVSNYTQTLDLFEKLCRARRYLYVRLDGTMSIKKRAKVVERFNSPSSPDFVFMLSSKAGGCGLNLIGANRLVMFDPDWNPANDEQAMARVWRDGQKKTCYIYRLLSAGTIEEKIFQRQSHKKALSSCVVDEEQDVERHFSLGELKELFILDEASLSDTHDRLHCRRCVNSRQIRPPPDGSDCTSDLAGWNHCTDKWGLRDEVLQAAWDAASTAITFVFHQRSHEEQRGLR

Abbreviations – A = RAD52 anneal inh; B = E-selectin induc; C = UUG fidelity; D = RAD54 branch; E = XiGFP reactiv; F = DNA binder FP
SMILES: Nc1nc2c(ncn2[C@@H]2O[C@H](CNCc3ccc(F)c(N4CCOCC4)c3)[C@@H](O)[C@H]2O)c(=O)[nH]1
  A: -9.0; B: nt; C: 9.9; D: -12.9; E: 0.0; F: nt
SMILES: O=C1Nc2cc(C(=O)NCCCN3CCCC3)ccc2S/C1=C\c1ccccc1
  A: 84.2*; B: nt; C: -7.7; D: 10.2; E: 0.3; F: i
SMILES: COc1ccc(/C=C2\Sc3ccc(C(=O)NCCCN4CCCC4)cc3N(C)C2=O)cc1OC
  A: 66.2*; B: nt; C: -10.1; D: 24.4; E: 0.0; F: i
SMILES: CCN(CC)CCOC(=O)c1ccc(N/C=C(/C#N)c2nc(-c3ccc(OC)c(OC)c3)cs2)cc1
  A: 70.3*; B: 0.2; C: nt; D: nt; E: 0.1; F: i
SMILES: C[C@@H]1CN([C@@H](C)CO)C(=O)c2cc(NS(=O)(=O)c3ccccc3)ccc2O[C@@H](C)CCCCO[C@H]1CN(C)C(=O)CCC(F)(F)F
  A: 2.7; B: 0.3; C: 8.2; D: 3.7; E: -0.3; F: nt
SMILES: Cc1ccc(S(=O)(=O)Nc2cccc3c2O[C@@H](CN(C)Cc2ccc(Cl)c(Cl)c2)[C@@H](C)CN([C@@H](C)CO)C3=O)cc1
  A: nt; B: -0.4; C: nt; D: nt; E: -0.2; F: nt
SMILES: COc1cc(-c2cnc3c(NC=O)cc(-c4ccc(N5CCN(C)CC5)cc4)cn23)cc(OC)c1OC
  A: 70.0*; B: 0.9; C: -36.8; D: 21.9; E: 0.0; F: i
SMILES: O=C(NCC1CCCO1)c1nnc(Cc2ccc(F)cc2)o1 (stereo unspecified)
  A: 53.3*; B: 0.1; C: -14.0; D: 2.6; E: 0.1; F: i
SMILES: CCN1CCN(c2ccc(N=Cc3ccccc3O)cc2)CC1
  A: 98.9*; B: 2.8; C: nt; D: nt; E: -0.1; F: i
SMILES: COc1cccc(C=Nc2ccc(N3CCOCC3)cc2)c1O
  A: 7.5; B: nt; C: -26.5; D: 11.9; E: 0.2; F: nt
SMILES: NC1(N2SC(S)=C3CCCC=C32)CCCCC1
  A: 85.6*; B: 0.1; C: nt; D: nt; E: 0.3; F: i
SMILES: C[C@@H]1CN([C@@H](C)CO)C(=O)c2ccccc2-c2ccccc2CO[C@H]1CN(C)C(=O)[C@H](Cc1ccccc1)N(C)C
  A: 5.0; B: 0.2; C: nt; D: 6.4; E: 0.2; F: nt
SMILES: CCN(CC)c1ccc(C(=C2C=CC(=[N+](CC)CC)C=C2)c2ccc(N(CC)CC)cc2)cc1
  A: 51.6*; B: nt; C: -62.6; D: 16.6; E: -0.1; F: i
SMILES: COc1ccc(-c2csc(N(CCCN(C)C)C(=O)c3ccccc3C)n2)cc1
  A: 48.3; B: -0.1; C: -9.1; D: 10.6; E: 0.1; F: nt
SMILES: COc1ccc(-c2csc(N(CCCN(C)C)C(=O)c3ccccc3Cl)n2)cc1
  A: 53.2*; B: 0.0; C: 13.5; D: 21.8; E: 0.0; F: i

Next section:
Abbreviations – A = RAD52 anneal inh; B = E-selectin induc; C = UUG fidelity; D = RAD54 branch; E = XiGFP reactiv; F = DNA binder FP
SMILES: Oc1ccc2sc(-c3ccccc3O)c(-c3ccc(OCCN4CCCCC4)cc3)c2c1
  A: 68.4*; B: 0.1; C: nt; D: nt; E: -0.1; F: i
SMILES: COc1ccccc1-c1sc2ccccc2c1-c1ccc(OCCN2CCCCC2)cc1
  A: nt; B: nt; C: -13.6; D: 5.8; E: nt; F: nt
SMILES: CNC[C@@H]1OCc2cn(nn2)CCCC(=O)N([C@H](C)CO)C[C@@H]1C
  A: nt; B: -0.1; C: nt; D: nt; E: 0.2; F: nt
SMILES: Oc1ccc(C2CNCCc3c2cc(O)c(O)c3Cl)cc1 (stereo unspecified)
  A: 51.8*!; B: 1.7; C: -9.7; D: -3.0; E: 0.9; F: i
SMILES: C/C=C/c1ccc([C@H]2[C@@H](C#N)N(c3ncc(CC)s3)[C@H]2CO)cc1
  A: -19.6; B: -0.2; C: -0.9; D: 10.2; E: 0.3; F: nt
SMILES: Cn1c2ccccc2c2n[nH]c(=S)nc21
  A: -9.0; B: nt; C: -21.4; D: -9.3; E: 0.0; F: nt
SMILES: CCN(CC)CCn1c2ccccc2c2n[nH]c(=S)nc21
  A: 72.6*; B: 0.0; C: -3.3; D: 23.7; E: 0.3; F: i
SMILES: CCN(CC)CCn1c2ccccc2c2nc3ccccc3nc21
  A: 88.5*; B: 4.2; C: -23.2; D: 105.7*; E: 0.0; F: i
SMILES: CN1CCN(c2ccc(CNC(=O)c3ccc(-c4ccc(F)c(F)c4)c4ccoc34)cc2)CC1
  A: 54.5*; B: 0.0; C: -8.2; D: 2.8; E: 0.0; F: i
SMILES: CN1CCN(c2ccc(CNC(=O)c3cccc4c(-c5ccc(F)c(F)c5)coc34)cc2)CC1
  A: nt; B: nt; C: 4.3; D: 16.3; E: nt; F: nt
SMILES: CC1(C)N=C(N)N=C(N)N1c1ccc(CCCCc2ccccc2)cc1
  A: 85.2*; B: -0.3; C: -11.6; D: 29.4; E: 0.0; F: i

Just RAD54 branch, E-selectin induc and RAD52 anneal inh (two entries from above):
SMILES,RAD54 branch,E-selectin induc,RAD52 anneal inh
CN1CCN(c2ccc(CNC(=O)c3ccc(-c4ccc(F)c(F)c4)c4ccoc34)cc2)CC1,2.8,0.0,54.5*
CN1CCN(c2ccc(CNC(=O)c3cccc4c(-c5ccc(F)c(F)c5)coc34)cc2)CC1,16.3,nt,nt

Taken from above.
RAD54 branch result of COc1ccccc1-c1sc2ccccc2c1-c1ccc(OCCN2CCCCC2)cc1 is entered as 5.8
UUG fidelity result of CN1CCN(c2ccc(CNC(=O)c3ccc(-c4ccc(F)c(F)c4)c4ccoc34)cc2)CC1 is entered as -8.2
